The list shows a part of the results, in another mix than the full data. Calls of active or inactive are those of the source. Rule as the data show it: active = inhibition above about 23%; inactive = the rest.

This note sets out measurements from PubChem BioAssay AID652035 (The Scripps Research Institute Molecular Screening Center, 2013).

The experiment in a line: BSA probe fluorescence interference – biochemical, TAMRA-labeled BSA, counter-screen for TCR-CD3 interaction inhibitor project (AID 652035).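 Also: 0% = buffer low control and 100% = reference high control.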 The settings on record: TAMRA-labeled BSA probe fluorescence counterscreen; at 9.4 µM; active compounds read high. A general note: The purpose of a counterscreen is to sort out artefacts and off-target activity.
For the molecule `Nc1cccc2c([As](=O)(O)O)cccc12`, the inhibition is active: 39.2%.

The term inhibition denotes the drop in the measured response relative to a control, in per cent.
